The chains behind the UniProt entries cited, without tags or fusion partners. Residues count along the entry.
UniProt P23458, 875-1153: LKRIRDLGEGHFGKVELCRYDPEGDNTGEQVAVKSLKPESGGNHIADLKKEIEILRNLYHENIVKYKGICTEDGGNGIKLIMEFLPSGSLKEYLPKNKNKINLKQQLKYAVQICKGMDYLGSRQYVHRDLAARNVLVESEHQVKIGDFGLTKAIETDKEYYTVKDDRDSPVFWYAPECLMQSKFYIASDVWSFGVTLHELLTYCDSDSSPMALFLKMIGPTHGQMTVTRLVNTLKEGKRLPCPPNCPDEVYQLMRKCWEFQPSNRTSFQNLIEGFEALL
UniProt O60674, 849-1124: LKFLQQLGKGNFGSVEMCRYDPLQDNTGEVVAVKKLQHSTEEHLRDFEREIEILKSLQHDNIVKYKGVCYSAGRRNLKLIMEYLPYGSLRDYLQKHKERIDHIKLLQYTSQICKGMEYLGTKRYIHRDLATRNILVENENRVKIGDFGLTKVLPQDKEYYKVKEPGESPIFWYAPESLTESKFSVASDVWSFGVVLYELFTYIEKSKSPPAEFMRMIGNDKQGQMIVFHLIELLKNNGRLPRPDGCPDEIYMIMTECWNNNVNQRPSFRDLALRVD

One assay addresses isolated recombinant JAK1 kinase domain (Homo sapiens (Human), UniProt P23458). Briefly: JAK1 enzyme assay (Caliper LabChip, peptide phosphorylation). The settings on record: 25 μM ATP. In kind it is biochemical.
A word on the Ki: it is the dissociation constant of the complex between target and ligand, obtained from inhibition or displacement. Consider `O=C(Nc1cn(CC(=O)N2CCCCC2)nc1-c1cc(Cl)ccc1OC(F)F)c1cnn2cccnc12` [Example 308, N-[3-[5-chloro-2-(difluoromethoxy)phenyl]-1-[2-oxo-2-(1-piperidyl)ethyl]pyrazol-4-yl]pyrazolo[1,5-a]pyrimidine-3-carboxamide], for which the Ki is 0.24 nM.

Take `O=C(Nc1cn(CC(=O)N2CCC3(CNC3)C2)nc1-c1cc(Cl)ccc1OC(F)F)c1cnn2cccnc12` [Example 219, N-[3-[5-chloro-2-(difluoromethoxy)phenyl]-1-[2-(2,6-diazaspiro[3.4]octan-6-yl)-2-oxo-ethyl]pyrazol-4-yl]pyrazolo[1,5-a]pyrimidine-3-carboxamide]: the Ki amounted to 0.56 nM.

On to `N#CC1(c2ccccc2)CCN(C(=O)Cn2cc(NC(=O)c3cnn4cccnc34)c(-c3cc(Cl)ccc3OC(F)F)n2)CC1` [Example 281, N-[3-[5-chloro-2-(difluoromethoxy)phenyl]-1-[2-(4-cyano-4-phenyl-1-piperidyl)-2-oxo-ethyl]pyrazol-4-yl]pyrazolo[1,5-a]pyrimidine-3-carboxamide], for which the Ki is 0.48 nM.

Consider `O=C(CN1CCCCC1)Cn1cc(NC(=O)c2cnn3cccnc23)c(-c2cc(Cl)ccc2OC(F)F)n1` [Example 418, N-(3-(5-chloro-2-(difluoromethoxy)phenyl)-1-(2-oxo-3-(piperidin-1-yl)propyl)-1H-pyrazol-4-yl)pyrazolo[1,5-a]pyrimidine-3-carboxamide], for which the Ki was determined as 2.43 nM.

Take `CCOC(=O)CNC1CCN(C(=O)Cn2cc(NC(=O)c3cnn4cccnc34)c(-c3cc(Cl)ccc3OC(F)F)n2)CC1` [Example 364, ethyl 2-[[1-(2-[3-[5-chloro-2-(difluoromethoxy)phenyl]-4-[pyrazolo[1,5-a]pyrimidine-3-amido]-1H-pyrazol-1-yl]acetyl)piperidin-4-yl]amino]acetate]: the Ki worked out at 0.77 nM.

As to `N#CC1CCN(C2CCN(C(=O)Cn3cc(NC(=O)c4cnn5cccnc45)c(-c4cc(Cl)ccc4OC(F)F)n3)CC2)C1` (stereo not drawn) [Example 409, N-(3-(5-chloro-2-(difluoromethoxy)phenyl)-1-(2-(4-(3-cyanopyrrolidin-1-yl)piperidin-1-yl)-2-oxoethyl)-1H-pyrazol-4-yl)pyrazolo[1,5-a]pyrimidine-3-carboxamide], the Ki stood at 0.36 nM.

Take `Nc1nn2cccnc2c1C(=O)Nc1cn(CC(=O)N2CC[C@H](O)C2)nc1-c1cc(Cl)ccc1OC(F)F` [Example 270, 2-amino-N-[3-[5-chloro-2-(difluoromethoxy)phenyl]-1-[2-[(3S)-3-hydroxypyrrolidin-1-yl]-2-oxo-ethyl]pyrazol-4-yl]pyrazolo[1,5-a]pyrimidine-3-carboxamide]: the Ki turned out to be 0.24 nM.

For `Nc1nn2cccnc2c1C(=O)Nc1cn(C2CCCNCC2)nc1-c1cc(Cl)ccc1OC(F)F` (stereo not drawn) [Example 171, 2-amino-N-[1-(azepan-4-yl)-3-[5-chloro-2-(difluoromethoxy)phenyl]pyrazol-4-yl]pyrazolo[1,5-a]pyrimidine-3-carboxamide], the inhibition constant (Ki) turned out to be 0.72 nM.

Consider `CN1C[C@@H]2C[C@H]1CN2C(=O)Cn1cc(NC(=O)c2c(N)nn3cccnc23)c(-c2cc(Cl)ccc2OC(F)F)n1` [Example 250, 2-amino-N-[3-[5-chloro-2-(difluoromethoxy)phenyl]-1-[2-[(1S,4S)-5-methyl-2,5-diazabicyclo[2.2.l]heptan-2-yl]-2-oxo-ethyl]pyrazol-4-yl]pyrazolo[1,5-a]pyrimidine-3-carboxamide], for which the Ki was 1.39 nM.

Consider `Nc1nn2cccnc2c1C(=O)Nc1cn(CC(=O)N2C[C@H]3CN(CC4CC4)C[C@H]3C2)nc1-c1cc(Cl)ccc1OC(F)F` [Example 57, N-[1-[2-[(3aS,6aR)-2-(cyclopropylmethyl)-1,3,3a,4,6,6a-hexahydropyrrolo[3,4-c]pyrrol-5-yl]-2-oxo-ethyl]-3-[5-chloro-2-(difluoromethoxy)phenyl]pyrazol-4-yl]-2-amino-pyrazolo[1,5-a]pyrimidine-3-carboxamide], for which the Ki was 0.59 nM.

With `CN(C)C(=O)N1CCC(CN2C[C@@H]3CN(C(=O)Cn4cc(NC(=O)c5cnn6cccnc56)c(-c5cc(Cl)ccc5OC(F)F)n4)C[C@@H]3C2)CC1` [Example 36, N-[1-[2-[(3aR,6aS)-2-[[1-(dimethylcarbamoyl)-4-piperidyl]methyl]-1,3,3a,4,6,6a-hexahydropyrrolo[3,4-c]pyrrol-5-yl]-2-oxo-ethyl]-3-[5-chloro-2-(difluoromethoxy)phenyl]pyrazol-4-yl]pyrazolo[1,5-a]pyrimidine-3-carboxamide], the inhibition constant (Ki) was 0.84 nM.

Regarding `CCN[C@@H](C)Cn1cc(NC(=O)c2cnn3cccnc23)c(-c2cc(Cl)ccc2OC(F)F)n1` [Example 371, N-[3-[5-chloro-2-(difluoromethoxy)phenyl]-1-[(2S)-2-(ethylamino)propyl]-1H-pyrazol-4-yl]pyrazolo[1,5-a]pyrimidine-3-carboxamide], the Ki turned out to be 1.14 nM.

As to `O=C(Nc1cn([C@H]2CNCC[C@@H]2O)nc1-c1cc(Cl)ccc1OC(F)F)c1cnn2cccnc12` [Example 361, N-[3-[5-chloro-2-(difluoromethoxy)phenyl]-1-[(3S,4S)-4-hydroxypiperidin-3-yl]-1H-pyrazol-4-yl]pyrazolo[1,5-a]pyrimidine-3-carboxamide], the inhibition constant Ki amounted to 2.94 nM.

On to `O=C(Nc1cn(CCNCc2cccnc2)nc1-c1cc(Cl)ccc1OC(F)F)c1cnn2cccnc12` [Example 368, N-[3-[5-chloro-2-(difluoromethoxy)phenyl]-1-[2-[(pyridin-3-ylmethyl)amino]ethyl]-1H-pyrazol-4-yl]pyrazolo[1,5-a]pyrimidine-3-carboxamide], for which the inhibitory constant (Ki) was 0.72 nM.

For `CCOC(=O)CN1CCN(C(=O)Cn2cc(NC(=O)c3cnn4cccnc34)c(-c3cc(Cl)ccc3OC(F)F)n2)CC1` [Example 397, ethyl 2-[4-(2-[3-[5-chloro-2-(difluoromethoxy)phenyl]-4-[pyrazolo[1,5-a]pyrimidine-3-amido]-1H-pyrazol-1-yl]acetyl)piperazin-1-yl]acetate], the Ki came to 0.28 nM.

A further assay deals with isolated recombinant JAK2 kinase domain (Homo sapiens (Human), UniProt O60674). Kind of assay: JAK2 enzyme assay (Caliper LabChip, peptide phosphorylation). In kind it is biochemical. To be noted: 25 μM ATP.
In the case of `CCN[C@@H](C)Cn1cc(NC(=O)c2cnn3cccnc23)c(-c2cc(Cl)ccc2OC(F)F)n1` [Example 371, N-[3-[5-chloro-2-(difluoromethoxy)phenyl]-1-[(2S)-2-(ethylamino)propyl]-1H-pyrazol-4-yl]pyrazolo[1,5-a]pyrimidine-3-carboxamide], the Ki was determined as 1.19 nM.

In the case of `CN1CC2(CCN(C(=O)Cn3cc(NC(=O)c4cnn5cccnc45)c(-c4cc(Cl)ccc4OC(F)F)n3)CC2)C1` [Example 218, N-[3-[5-chloro-2-(difluoromethoxy)phenyl]-1-[2-(2-methyl-2,7-diazaspiro[3.5]nonan-7-yl)-2-oxo-ethyl]pyrazol-4-yl]pyrazolo[1,5-a]pyrimidine-3-carboxamide], the Ki worked out at 3.08 nM.

In the case of `CN1CC2(CCN(C(=O)Cn3cc(NC(=O)c4cnn5cccnc45)c(-c4cc(Cl)ccc4OC(F)F)n3)C2)C1` [Example 221, N-[3-[5-chloro-2-(difluoromethoxy)phenyl]-1-[2-(2-methyl-2,6-diazaspiro[3.4]octan-6-yl)-2-oxo-ethyl]pyrazol-4-yl]pyrazolo[1,5-a]pyrimidine-3-carboxamide], the Ki is 1.68 nM.
